Legend:
Assay type in all cases: cell-based
[1] = test system: human colon cancer HCT116 cell line; test: Cell growth inhibition 2, HCT116; conditions: HCT-116
Procedure: (§1) The ability of test compounds to inhibit cell growth was determined by quantifying ATP from viable cells using a CellTiter-Glo™ Luminescent Cell Viability Assay (#G7573, produced by Promega, Inc.). The human acute T lymphoblastic leukemia CCRF-CEM cell lines (distributed by Dainippon Pharmaceutical Co., Ltd. (currently Sumitomo Dainippon Pharma Co., Ltd.)) were seeded in a 96-well plate (#165305, produced by Thermo Scientific Nunc) at a concentration of 1,000 cells/100 μL medium per well. The cells were cultured in a 5% CO2 incubator at 37° C. overnight, and the test compound was added thereto, followed by culture for another 72 hours. […] The luminescence intensity was measured using a microplate reader (EnSpire™ Multimode Plate Reader, produced by PerkinElmer Japan Co., Ltd.), and used as an index of the number of viable cells in each well. The cell growth inhibition rate (%) achieved by the compound was determined by the following equation (equation B) by using the luminescence intensity of a drug untreated group (control) as a control. […]
(§2) T: Luminescence intensity in a well to which a test compound was added C: Luminescence intensity in a well to which a test substance was not added
(§3) The ability of test compounds to inhibit cell growth was determined as in Test Example 2, except that the cell lines, the culture plate, and the number of cells seeded per well were as shown in Table 18. […]

[2] = test system: human acute T lymphoblastic leukemia CCRF-CEM cell lines; test: Cell growth inhibition 1 (CellTiter-Glo); conditions: culture with test compound 72 hours
[3] = test system: human acute leukemia MV-4-11 cell line; test: Cell growth inhibition 2, MV-4-11; conditions: MV4-11
Procedure: as §1, §2, §3

[4] = test system: human lung cancer A-427 cell line; test: Cell growth inhibition 2, A-427
Procedure: as §1, §2, §3

[5] = test system: human skin cancer A-431 cell line; test: Cell growth inhibition 2, A-431
Procedure: as §1, §2, §3

[6] = test system: human breast cancer MDA-MB-453 cell line; test: Cell growth inhibition 2, MDA-MB-453
Procedure: as §1, §2, §3

[7] = test system: human diffuse large B-cell lymphoma DB cell line; test: Cell growth inhibition 2, DB
Procedure: as §1, §2, §3

[8] = test system: human pancreatic cancer Capan-1 cell line; test: Cell growth inhibition 2, Capan-1
Procedure: as §1, §2, §3

[9] = test system: human prostate cancer LNCAP.FGC cell line; test: Cell growth inhibition 2, LNCaP.FGC
Procedure: as §1, §2, §3

[10] = test system: human osteo- and soft tissue sarcoma SJCRH30 cell line; test: Cell growth inhibition 2, SJCRH30
Procedure: as §1, §2, §3

IC50 [1]: 12 nM
IC50 [2]: 2.2 nM
IC50 [3]: 6.7 nM
IC50 [4]: 7 nM
IC50 [5]: 480 nM
IC50 [6]: 94 nM
IC50 [7]: 61 nM
IC50 [8]: 870 nM
IC50 [9]: 260 nM
IC50 [10]: 550 nM
SMILES: CCOc1cccc(F)c1C#Cc1cn([C@@H]2O[C@H](CNS(N)(=O)=O)[C@@H](O)[C@H]2O)c2ncnc(N)c12 [Reference Example 55, 4-Amino-7-[(2R,3R,4S,5R)-3,4-dihydroxy-5-[(sulfamoylamino)methyl]tetrahydrofuran-2-yl]-5-[2-(2-ethoxy-6-fluoro-phenyl)ethynyl]pyrrolo[2,3-d]pyrimidine]
